Test results: US7119182

What was measured:
[1] = target: human thrombin receptor (human) (UniProt P25116); assay: cell-based or functional assay
[2] = target: mutant thrombin receptor with the amino acid substitution R41A (human) (UniProt P25116); assay: cell-based or functional assay

Substance | shift of the dose response of platelet ATP secretion to native thrombin, S205A at 400 nM [1] [log] | Fold increase in 45Ca (release by oocytes expressing receptor cRNA); Thrombin [2] [fold] | Fold increase in 45Ca (release by oocytes expressing receptor cRNA); Thrombin [1] [fold]
S205A mutant thrombin (from UniProt P00734 364-622; P00734 315-363) (enzyme) | 1 |  | 
thrombin (from UniProt P00734 364-622; P00734 328-363) (enzyme) |  | 0 | 26
